Tests used:
[1] = biological target: T1, human µ opioid receptor (MOR); OPRM1 (PathHunter CHO-K1 OPRM1 β-Arrestin cells) (Homo sapiens, UniProt P35372); test: cell-based
T1 construct: receptor in CHO-K1 cells (commercial PathHunter CHO-K1 OPRM1 β-Arrestin line, Eurofins-DiscoverX); beta-galactosidase fragment complementation with βarrestin2 as read-out

Amino acid sequences for entries named in this document (tags omitted).
UniProt P35372, whole entry: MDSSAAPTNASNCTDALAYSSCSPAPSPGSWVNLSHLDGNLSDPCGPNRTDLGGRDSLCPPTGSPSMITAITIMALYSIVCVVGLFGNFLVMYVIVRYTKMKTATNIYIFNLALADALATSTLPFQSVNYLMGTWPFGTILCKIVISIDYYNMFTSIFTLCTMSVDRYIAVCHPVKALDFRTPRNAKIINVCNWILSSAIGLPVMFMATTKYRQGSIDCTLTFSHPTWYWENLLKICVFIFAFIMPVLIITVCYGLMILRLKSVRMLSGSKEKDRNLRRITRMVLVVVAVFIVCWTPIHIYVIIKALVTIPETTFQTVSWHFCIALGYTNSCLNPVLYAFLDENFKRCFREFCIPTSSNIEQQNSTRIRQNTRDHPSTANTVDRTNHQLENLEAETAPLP

[2] = biological target: T2, human µ opioid receptor (MOR); OPRM1 (cAMP Hunter CHO-K1 OPRM1 Gi cells) (Homo sapiens, UniProt P35372); test: cell-based
T2 construct: receptor expressed in CHO-K1 cells (commercial cAMP Hunter CHO-K1 OPRM1 Gi line, Eurofins-DiscoverX)

For `CN(C)C[C@@H]1CCCC[C@@]1(O)c1cccc(O)c1` [(-)-Desmetramadol], the EC50 [1] was greater than 100 µM and the EC50 [2] was 2.43 ± 0.469 µM.
